Sequences of proteins named here, by UniProt entry; tags and fusion partners are left off. A change or cut given only in a name is not applied to a line headed by its entry.
UniProt Q96LB2: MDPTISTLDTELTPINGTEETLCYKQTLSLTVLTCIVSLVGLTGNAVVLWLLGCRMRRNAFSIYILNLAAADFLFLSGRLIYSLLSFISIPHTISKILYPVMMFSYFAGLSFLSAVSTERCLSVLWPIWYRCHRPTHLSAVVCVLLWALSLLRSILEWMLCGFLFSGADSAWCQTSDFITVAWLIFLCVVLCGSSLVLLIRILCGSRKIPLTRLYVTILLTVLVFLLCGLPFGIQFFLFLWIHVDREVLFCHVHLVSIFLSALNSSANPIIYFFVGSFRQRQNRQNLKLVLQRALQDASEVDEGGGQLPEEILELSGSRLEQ

According to patent EP1340979A2, “Neuropeptide receptor and uses thereof” (Pfizer Limited, priority 2002, dated 2003):

Columns and labels:
receptor MRGX2 = biological target: T1, receptor MRGX2 (Homo sapiens, UniProt Q96LB1); test: Functional assay measuring intracellular calcium mobilisation (FLIPR); format: cell-based; parameters: expressed in transfected cells; host or cells: e.g. HEK293 or CHO-K1 engineered to stably express Galpha15 / Gqi-5; details: Preliminary EC50 data for receptor MRGX2; transiently transfected host cells expressing Gα15 / Gqi-5, Fluo3 fluorescence
T1 sequence (Q96LB1 1-330): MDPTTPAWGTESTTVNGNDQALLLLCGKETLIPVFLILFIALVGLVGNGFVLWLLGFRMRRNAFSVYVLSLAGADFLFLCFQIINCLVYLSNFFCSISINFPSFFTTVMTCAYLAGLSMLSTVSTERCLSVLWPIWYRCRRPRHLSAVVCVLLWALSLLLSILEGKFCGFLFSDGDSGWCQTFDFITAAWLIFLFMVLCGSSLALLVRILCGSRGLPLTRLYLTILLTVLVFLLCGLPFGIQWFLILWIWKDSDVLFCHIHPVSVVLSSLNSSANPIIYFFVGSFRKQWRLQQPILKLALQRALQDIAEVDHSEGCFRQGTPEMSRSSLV

SNSR4 = SNSR4 (Homo sapiens, UniProt Q96LB2); details: SNSR4 (MRGX1); cited from earlier work

Substance	EC50 (receptor MRGX2) [nM]	EC50 (SNSR4) [nM]
BAM 13-22	100	–
Bovine adrenal medulla peptide 22 [BAM 22]	–	16
